Assay results published in patent US9085576B2 (AMGEN INC., priority 2013, dated 2015).
Blank lines part the entries; values can stand above or below the compound they belong to.

Sequences of proteins named here, by UniProt entry; tags and fusion partners are left off. Residues count along the entry.
UniProt P56817, 46-501, species assumed: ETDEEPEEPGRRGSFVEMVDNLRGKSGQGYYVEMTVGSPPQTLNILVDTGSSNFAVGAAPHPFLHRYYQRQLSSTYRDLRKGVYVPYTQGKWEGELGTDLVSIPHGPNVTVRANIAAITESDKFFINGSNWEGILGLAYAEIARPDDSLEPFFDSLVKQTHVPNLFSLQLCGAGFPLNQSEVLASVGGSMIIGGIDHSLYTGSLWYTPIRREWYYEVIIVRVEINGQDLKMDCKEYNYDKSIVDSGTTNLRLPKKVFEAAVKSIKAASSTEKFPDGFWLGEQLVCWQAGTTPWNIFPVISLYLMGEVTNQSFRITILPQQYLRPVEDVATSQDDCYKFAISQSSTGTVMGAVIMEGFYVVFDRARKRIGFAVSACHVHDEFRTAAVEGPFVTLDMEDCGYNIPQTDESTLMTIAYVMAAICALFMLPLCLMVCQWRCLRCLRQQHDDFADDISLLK

Biological target: BACE (Homo sapiens (Human), UniProt P56817)
Assay: In vitro BACE cell-based assay (Aβ40 in conditioned medium, sandwich ELISA)
Details: read-out: BACE cell assay IC50

Compound: NC1=N[C@@](c2cc(N[C@@H]3CCc4cc(Br)cnc43)ccc2F)(C(F)F)[C@H]2C[C@H]2O1 (single isomer, unassigned) [Example 380, (1R,5S,6R)-5-(5-(((R)-3-bromo-6,7-dihydro-5H-cyclopenta[b]pyridin-7-yl)amino)-2-fluorophenyl)-5-(difluoromethyl)-2-oxa-4-azabicyclo[4.1.0]hept-3-en-3-amine or (1R,5S,6R)-5-(5-(((S)-3-bromo-6,7-dihydro-5H-cyclopenta[b]pyridin-7-yl)amino)-2-fluorophenyl)-5-(difluoromethyl)-2-oxa-4-azabicyclo[4.1.0]hept-3-en-3-amine]
- IC50: 145 nM

Compound: (R)-8-((3-((1R,5S,6R)-3-amino-5-(difluoromethyl)-2-oxa-4-azabicyclo[4.1.0]hept-3-en-5-yl)-4-fluorophenyl)amino)-5,6,7,8-tetrahydroquinoline-3-carbonitrile and (S)-8-((3-((1R,5S,6R)-3-amino-5-(difluoromethyl)-2-oxa-4-azabicyclo[4.1.0]hept-3-en-5-yl)-4-fluorophenyl)amino)-5,6,7,8-tetrahydroquinoline-3-carbonitrile [Example 403]
- IC50: 677 nM

Compound: NC1=N[C@@](c2cc(N[C@H]3CCc4cc(Br)cnc43)ccc2F)(C(F)F)[C@H]2C[C@H]2O1 (single isomer, unassigned) [Example 381, (1R,5S,6R)-5-(5-(((S)-3-bromo-6,7-dihydro-5H-cyclopenta[b]pyridin-7-yl)amino)-2-fluorophenyl)-5-(difluoromethyl)-2-oxa-4-azabicyclo[4.1.0]hept-3-en-3-amine or (1R,5S,6R)-5-(5-(((R)-3-bromo-6,7-dihydro-5H-cyclopenta[b]pyridin-7-yl)amino)-2-fluorophenyl)-5-(difluoromethyl)-2-oxa-4-azabicyclo[4.1.0]hept-3-en-3-amine]
- IC50: 1670 nM

Compound: NC1=N[C@@](c2cc(N[C@@H]3CCc4cc(Br)ccc43)ccc2F)(C(F)F)[C@H]2C[C@H]2O1.NC1=N[C@@](c2cc(N[C@H]3CCc4cc(Br)ccc43)ccc2F)(C(F)F)[C@H]2C[C@H]2O1 (mixture of isomers) [Example 384, (1R,5S,6R)-5-(5-(((R)-5-bromo-2,3-dihydro-1H-inden-1-yl)amino)-2-fluorophenyl)-5-(difluoromethyl)-2-oxa-4-azabicyclo[4.1.0]hept-3-en-3-amine and (1R,5S,6R)-5-(5-(((S)-5-bromo-2,3-dihydro-1H-inden-1-yl)amino)-2-fluorophenyl)-5-(difluoromethyl)-2-oxa-4-azabicyclo[4.1.0]hept-3-en-3-amine]
- IC50: 1370 nM

Compound: N-(3-((1R,5S,6R)-3- amino-5- (difluoromethyl)-2-oxa- 4-azabicyclo[4.1.0]hept- 3-en-5-yl)-4-fluoro-5- methylphenyl)-4-chloro- 2-(fluoromethyl) benzamide [Example 444]
- IC50: 31.3 nM

Compound: NC1=N[C@@](c2cc(N[C@H](c3ccc(Cl)cn3)C(F)(F)F)ccc2F)(C(F)F)[C@H]2C[C@H]2O1 (mixture of isomers) [Example 422, (1R,5S,6R)-5-(5-(((R)-1-(5-chloropyridin-2-yl)-2,2,2-trifluoroethyl)amino)-2-fluorophenyl)-5-(difluoromethyl)-2-oxa-4-azabicyclo[4.1.0]hept-3-en-3-amine and (1R,5S,6R)-5-(5-(((S)-1-(5-chloropyridin-2-yl)-2,2,2-trifluoroethyl)amino-2-fluorophenyl)-5-(difluoromethyl)-2-oxa-4-azabicyclo[4.1.0]hept-3-en-3-amine]
- IC50: 4060 nM

Compound: CC#Cc1cncc(-c2cc([C@]3(CF)N=C(N)O[C@H]4C[C@H]43)c(F)cc2CO)c1 [Example 432, (4-(((1S,R),(5R,S),(6S,R))-3-amino-5-(fluoromethyl)-2-oxa-4-azabicyclo[4.1.0]hept-3-en-5-yl)-5-fluoro-2-(5-(prop-1-yn-1-yl)pyridin-3-yl)phenyl)methanol]
- IC50: 3680 nM

Compound: (R)-4-((3-((1R,5S,6R)-3-amino-5-(difluoromethyl)-2-oxa-4-azabicyclo[4.1.0]hept-3-en-5-yl)-4-fluorophenyl)amino)chroman-7-carbonitrile and (S)-4-((3-((1R,5S,6R)-3-amino-5-(difluoromethyl)-2-oxa-4-azabicyclo[4.1.0]hept-3-en-5-yl)-4-fluorophenyl)amino)chroman-7-carbonitrile [Example 383]
- IC50: 352 nM

- IC50: 1590 nM
Compound: CC#Cc1cncc(-c2ccc(F)c([C@@]3(CF)N=C(N)O[C@@H]4C[C@@H]43)c2)c1 [Example 431, (1(S,R),5(R,S),6(S,R))-5-(2-fluoro-5-(5-(prop-1-yn-1-yl)pyridin-3-yl)phenyl)-5-(fluoromethyl)-2-oxa-4-azabicyclo[4.1.0]hept-3-en-3-amine]

Compound: NC1=N[C@@](c2cc(N[C@H]3CCCc4cc(Br)cnc43)ccc2F)(C(F)F)[C@H]2C[C@H]2O1 (mixture of isomers) [Example 382, (1R,5S,6R)-5-(5-(((R)-3-bromo-5,6,7,8-tetrahydroquinolin-8-yl)amino)-2-fluorophenyl)-5-(difluoromethyl)-2-oxa-4-azabicyclo[4.1.0]hept-3-en-3-amine and (1R,5S,6R)-5-(5-(((S)-3-bromo-5,6,7,8-tetrahydroquinolin-8-yl)amino)-2-fluorophenyl)-5-(difluoromethyl)-2-oxa-4-azabicyclo[4.1.0]hept-3-en-3-amine]
- IC50: 993 nM
